Columns and labels:
[1] = biological target: T1, Neutrophil elastase (Homo sapiens) (UniProt P08246); experiment: Component acylation rate constant for interaction with human leukocyte elastase
T1 sequence (whole entry): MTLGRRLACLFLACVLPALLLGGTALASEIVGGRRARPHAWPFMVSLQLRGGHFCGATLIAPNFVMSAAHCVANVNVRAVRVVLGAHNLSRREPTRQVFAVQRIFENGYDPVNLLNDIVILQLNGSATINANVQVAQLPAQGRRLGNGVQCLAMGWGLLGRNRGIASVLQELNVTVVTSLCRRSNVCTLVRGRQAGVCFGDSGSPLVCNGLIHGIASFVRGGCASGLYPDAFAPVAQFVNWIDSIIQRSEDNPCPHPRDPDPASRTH

[2] = biological target: T1, Neutrophil elastase (Homo sapiens); experiment: Component deacylation rate constant for interaction with human leukocyte elastase

With `O=c1oc(C(F)(F)F)nc2ccccc12` the Log kon [1] was 5.
For `CCc1cccc2nc(C)oc(=O)c12`, the Log kon [1] was 4.81 and the Log koff [2] was -2.11.
`CCc1cccc2nc(NC(C)C)oc(=O)c12` was tested, and the Log kon [1] was 4.85 and the Log koff [2] was -4.18.
In the case of `Nc1nc2ccccc2c(=O)o1`, the Log kon [1] is reported as 2.91 and the Log koff [2] is reported as -1.29.
Compound `CCSc1nc2ccc(C)cc2c(=O)o1` has a Log kon [1] of 6.
Compound `O=c1oc(C(F)(F)C(F)(F)C(F)(F)F)nc2ccccc12` has a Log kon [1] of 4.
`CCCCNc1nc2ccccc2c(=O)o1` was tested, and the Log kon [1] was 4.82 and the Log koff [2] was -2.26.
`COC(=O)[C@H](CC(C)C)Nc1nc2cccc(C)c2c(=O)o1` gave a Log koff [2] of -4.
Compound `Cc1cccc2nc(NC(C)C)oc(=O)c12` has a Log kon [1] of 4.07 and a Log koff [2] of -4.75.
For `COC(=O)[C@H](CC(C)C)NC(=O)[C@H](CC(C)C)Nc1nc2cc(C)cc(C)c2c(=O)o1`, the Log kon [1] was 3.1.
`CC(C)(C)c1nc2ccccc2c(=O)o1` showed a Log kon [1] of 4.
In the case of `CCCNc1nc2ccccc2c(=O)o1`, the Log kon [1] is reported as 5.65 and the Log koff [2] is reported as -1.39.

Source: ChEMBL document CHEMBL1125034, “Design and synthesis of 4H-3,1-benzoxazin-4-ones as potent alternate substrate inhibitors of human leukocyte elastase” (J Med Chem, 1990)
